In PubChem BioAssay AID720504 (National Center for Advancing Translational Sciences (NCATS), 2013):
The list shows a part of the results, in another mix than the full data. Inconclusive results are not listed. The source made the active and inactive calls. Calls come from the whole dose curve; as a rule, active = well fitted inhibition curve with a large enough effect; inconclusive = small, poorly fitted or top-dose-only effect; inactive = flat fitted curve, though single readings scatter.

Amino acid sequences for entries named in this document (tags omitted).
UniProt P53350, whole entry, looked up: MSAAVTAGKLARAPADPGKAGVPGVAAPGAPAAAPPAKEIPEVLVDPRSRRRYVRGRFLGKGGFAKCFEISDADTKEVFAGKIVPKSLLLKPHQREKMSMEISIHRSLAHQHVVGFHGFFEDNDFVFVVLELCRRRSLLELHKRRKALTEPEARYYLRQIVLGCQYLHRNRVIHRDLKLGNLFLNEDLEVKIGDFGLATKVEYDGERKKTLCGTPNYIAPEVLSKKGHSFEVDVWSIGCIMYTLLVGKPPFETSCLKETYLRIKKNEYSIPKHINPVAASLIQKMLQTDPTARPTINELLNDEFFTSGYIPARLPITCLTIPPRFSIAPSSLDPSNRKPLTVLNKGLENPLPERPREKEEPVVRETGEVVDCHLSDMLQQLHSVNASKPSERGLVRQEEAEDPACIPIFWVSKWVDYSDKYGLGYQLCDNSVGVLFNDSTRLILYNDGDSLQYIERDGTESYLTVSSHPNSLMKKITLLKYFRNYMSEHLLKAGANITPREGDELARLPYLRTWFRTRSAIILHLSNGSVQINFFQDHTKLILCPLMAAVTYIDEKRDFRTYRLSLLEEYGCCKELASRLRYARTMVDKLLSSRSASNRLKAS

target: Serine/threonine-protein kinase PLK1 (Homo sapiens) (UniProt P53350); experiment: qHTS for Inhibitors of PLK1-PDB (polo-like kinase 1 - polo-box domain): Primary Screen; conditions: Plk1 PBD binding of FITC phosphopeptide, fluorescence polarization; note: nearly all actives have a fitted effect of over 65% in size; for max response, negative = inhibition: series mostly up to about 57 µM
% is set by controls: 0 for no effect and ±100 for the full control effect; potency is the fitted concentration of half-maximal effect.

SMILES | max response, negative = inhibition | Potency
NC(=O)c1cc([N+](=O)[O-])cc([N+](=O)[O-])c1N | inactive: -9.52% | –
Cc1ccc(N/C(=N/P(=O)(N2CCOCC2)N2CCOCC2)N2CCOCC2)cc1 | inactive: -7.9% | –
CN(C(=O)Cc1ccc(Cl)c(Cl)c1)[C@H]1CCCC[C@H]1N1CCCC1 | inactive: -6.95% | –
Cc1ccc(OP(=O)(Nc2nccs2)Oc2ccc(C)cc2)cc1 | inactive: 2.14% | –
COc1ccccc1OP(=O)(Nc1ccc(C)cn1)Oc1ccccc1OC | inactive: -12.7% | –
CN1CCCC(OC(=O)C(c2ccccc2)c2ccccc2)C1 (centres undefined) | inactive: -7.73% | –
Nc1cc(N)c2nonc2c1[N+](=O)[O-] | inactive: 3.57% | –
CC(C)CC(=O)NC(Sc1ccc(Cl)cc1)C(Cl)(Cl)Cl (centres undefined) | inactive: -10.2% | –
O=C(NC(Sc1ccncn1)C(Cl)(Cl)Cl)c1ccccc1 (centres undefined) | – | active: 11.9 µM
Oc1ccccc1CNc1ccccn1 | inactive: 1.22% | –
O=[N+]([O-])C1C(O)C(O)C([N+](=O)[O-])C(O)C1O (centres undefined) | inactive: -2.97% | –
CCCC1OP(N)(=O)OCC1CC (centres undefined) | inactive: 1.05% | –
O=C(O)c1ccccc1[As](=O)(O)O | inactive: -22.1% | –
O=P(Nc1nc2ccc(Cl)cc2s1)(c1ccccc1)c1ccccc1 | inactive: -15.6% | –
CN(C)P(=O)(N(C)C)n1c(Nc2ccccc2)nnc1-c1ccccc1 | inactive: -9.07% | –
CN(C(=O)Cc1ccc(Cl)c(Cl)c1)[C@H]1CCCC[C@@H]1N1CCCC1 | inactive: -4.08% | –
Cc1ccc(NP(=O)(Oc2ccccc2F)Oc2ccccc2F)nc1 | inactive: -8% | –
Cc1cc(SC(NC(=O)c2ccc(F)cc2)C(Cl)(Cl)Cl)ncn1 (centres undefined) | – | active: 26.7 µM
CCOP(=O)(Nc1ccccc1)OCC | inactive: -0.773% | –
CCN(N=Nc1nonc1N)c1nonc1N | inactive: -3.09% | –
Nc1cccc2ccc([As](=O)(O)O)cc12 | inactive: -8.11% | –
O=P1(N(CCCl)CCCl)OCCCS1 (centres undefined) | inactive: -3.49% | –
O=C(Nc1cc([As](=O)(O)O)ccc1O)c1ccccc1 | inactive: -9.17% | –
CC(C)(C)C(=O)NC(Sc1ccncn1)C(Cl)(Cl)Cl (centres undefined) | – | active: 11.9 µM
O=[N+]([O-])c1ncn(CCn2ncnc2[N+](=O)[O-])n1 | inactive: 2.22% | –
COC(=O)C1(C)COP(=O)(Nc2ccccc2)OC1 (centres undefined) | inactive: -4.66% | –
O=[N+]([O-])c1cccc(NC2=NCC(CBr)S2)c1 (centres undefined) | – | active: 11.9 µM
O=C(O)CNc1ccc([As](=O)(O)O)cc1 | inactive: -6.05% | –
CC(=O)N1C2C3N(C(C)=O)C1C1N(C(C)=O)C(C(N1C(C)=O)N3C(C)=O)N2C(C)=O | inactive: -7.07% | –
